Results reported in ChEMBL document CHEMBL5725429, “P2X7 modulators” (2017).

Amino acid sequences for entries named in this document (tags omitted). A change or cut given only in a name is not applied to a line headed by its entry.
UniProt Q99572: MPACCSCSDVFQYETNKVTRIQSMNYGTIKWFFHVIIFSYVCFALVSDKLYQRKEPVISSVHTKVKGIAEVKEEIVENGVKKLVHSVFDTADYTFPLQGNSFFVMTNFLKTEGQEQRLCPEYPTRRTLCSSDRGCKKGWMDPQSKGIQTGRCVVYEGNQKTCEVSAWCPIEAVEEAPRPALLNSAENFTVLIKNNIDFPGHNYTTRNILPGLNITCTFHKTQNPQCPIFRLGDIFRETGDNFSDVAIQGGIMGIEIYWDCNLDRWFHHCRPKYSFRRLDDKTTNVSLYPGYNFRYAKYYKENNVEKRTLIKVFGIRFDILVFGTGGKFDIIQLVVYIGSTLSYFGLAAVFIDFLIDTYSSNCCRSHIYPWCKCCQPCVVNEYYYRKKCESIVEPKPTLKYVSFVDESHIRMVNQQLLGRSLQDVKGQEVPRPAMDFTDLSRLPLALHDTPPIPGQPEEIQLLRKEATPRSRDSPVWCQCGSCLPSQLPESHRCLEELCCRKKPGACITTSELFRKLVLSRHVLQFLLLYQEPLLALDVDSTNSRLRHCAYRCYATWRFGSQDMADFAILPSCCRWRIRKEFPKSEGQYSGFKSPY

Assays:
P2X purinoceptor 7 [1] = molecular target: T1, P2X purinoceptor 7 (Rattus norvegicus, UniProt Q64663); assay: (§1) Ca2+ Flux Assay: 1321N1 cells expressing the recombinant human or rat P2X7 channel was cultured in HyQ DME/(HyClone/Dulbecco's Modified Eagle Medium) high glucose supplemented with 10% Fetal Bovine Serum (FBS) and appropriate selection marker. Cells were seeded at a density of 25000 cells/well (96-well clear bottom black walled plates) in 100 μl volume/well. On the day of the experiment, cell plates were washed with assay buffer, containing (in mM): 130 NaCl, 2 KCl, 1 CaCl2, 1 MgCl2, 10 HEPES, 5 glucose; pH 7.40 and 300 mOs. After the wash, cells were loaded with the Calcium-4 dye (Molecular Device) and incubated in the dark for 60 minutes. Test compounds were prepared at 250× the test concentration in neat DMSO. Intermediate 96-well compound plates were prepared by transferring 1.2 μL of the compound into 300 μL of assay buffer. A further 3× dilution occurred when transferring 50 μL/well of the compound plate to 100 μL/well in the cell plate. Cells were incubated with test compounds and dye for 30 minutes. Calcium dye fluorescence was monitored in FLIPR as the cells were challenged by adding 50 μL/well of BzATP (final concentration is 250 μM BzATP (human and rat)).; assay type: cell-based
T1 sequence (Q64663 whole entry): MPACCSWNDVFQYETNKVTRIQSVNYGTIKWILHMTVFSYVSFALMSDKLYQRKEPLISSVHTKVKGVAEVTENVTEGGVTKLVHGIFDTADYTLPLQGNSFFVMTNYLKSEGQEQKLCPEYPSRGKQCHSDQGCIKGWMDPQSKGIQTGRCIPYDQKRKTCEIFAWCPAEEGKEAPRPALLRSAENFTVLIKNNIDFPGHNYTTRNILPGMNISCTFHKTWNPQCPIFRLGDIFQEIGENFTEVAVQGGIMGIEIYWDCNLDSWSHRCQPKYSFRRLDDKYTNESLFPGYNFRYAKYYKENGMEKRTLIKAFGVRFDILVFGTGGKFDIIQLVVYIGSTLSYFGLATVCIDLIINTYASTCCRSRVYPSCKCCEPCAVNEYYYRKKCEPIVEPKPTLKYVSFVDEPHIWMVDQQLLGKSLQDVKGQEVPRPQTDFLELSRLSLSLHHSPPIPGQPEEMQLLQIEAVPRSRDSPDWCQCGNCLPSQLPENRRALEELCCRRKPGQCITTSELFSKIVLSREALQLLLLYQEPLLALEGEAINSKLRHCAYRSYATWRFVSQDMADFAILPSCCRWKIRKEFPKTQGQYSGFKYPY

P2X purinoceptor 7 [2] = molecular target: P2X purinoceptor 7 (Homo sapiens, UniProt Q99572); assay: as §1; assay type: cell-based

Row | SMILES | Ki (P2X purinoceptor 7 [1]) [nM] | Ki (P2X purinoceptor 7 [2]) [nM]
1 | O=C(c1cccc(C(F)(F)F)c1Cl)N1[C@@H]2CCC[C@H]1c1nnc(-c3ccc(F)cc3)n1C2 (single isomer, unassigned) | 13 | 13
2 | Cc1cccc(-c2nnc3n2C[C@H]2CCC[C@@H]3N2C(=O)c2cccc(C(F)(F)F)c2Cl)n1 (single isomer, unassigned) |  | 5
